Results: article PMC10977726 (PLOS ONE, 2024)
pIC50, pKd: −log10 of the molar value.

Protein sequences, listed by entry. Tags and fused reporters are not part of them. Residues count along the entry.
UniProt P02768, 25-609: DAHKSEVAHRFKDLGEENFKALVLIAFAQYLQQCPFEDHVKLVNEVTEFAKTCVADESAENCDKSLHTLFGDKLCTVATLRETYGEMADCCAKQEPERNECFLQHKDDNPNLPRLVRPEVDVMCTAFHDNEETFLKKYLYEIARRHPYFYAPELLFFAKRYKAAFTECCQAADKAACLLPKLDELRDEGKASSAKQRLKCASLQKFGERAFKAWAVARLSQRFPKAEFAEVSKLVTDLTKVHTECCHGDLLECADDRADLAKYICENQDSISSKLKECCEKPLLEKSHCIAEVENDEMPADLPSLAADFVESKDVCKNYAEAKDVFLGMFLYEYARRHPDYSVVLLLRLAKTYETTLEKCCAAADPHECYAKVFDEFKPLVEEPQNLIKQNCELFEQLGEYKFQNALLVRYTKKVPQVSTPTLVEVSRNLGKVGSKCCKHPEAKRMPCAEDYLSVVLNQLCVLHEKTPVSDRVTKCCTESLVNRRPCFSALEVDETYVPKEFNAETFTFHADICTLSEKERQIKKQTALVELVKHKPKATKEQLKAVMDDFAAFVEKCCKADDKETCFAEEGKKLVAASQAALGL
UniProt P15692, 214-315: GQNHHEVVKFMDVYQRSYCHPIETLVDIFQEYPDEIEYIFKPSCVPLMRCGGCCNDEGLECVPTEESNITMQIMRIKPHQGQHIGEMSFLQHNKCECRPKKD

Assays:
human serum albumin = molecular target: T1, human serum albumin (Homo sapiens, UniProt P02768); assay: SPR; conditions: Table S12 and text; SPR Biacore S200, PBS-T pH 7.4, biotinylated human serum albumin on SA chip; at least three independent runs; N.A. = no detectable binding
T1 construct: purchased Rockland Immunochemicals, Inc. 009–0633
Experimental: SPR measurements were carried out on a Biacore S200 instrument (GE Healthcare) with PBS-T (PBS with 0.05% Tween 20, pH 7.4) as the assay buffer as described previously. For kinetic measurements, biotinylated protein was captured on three separate sensor channels of a Series S SA Sensor chip (GE Healthcare). The chip was then blocked with 0.1 mg/mL free biotin. A concentration series of the DCP were injected to the chip. Data were double-referenced by subtracting the signal from a control sensor channel (coated with biotin only) and the signal from a buffer injection. Binding data were fitted using the manufacturer’s software (1:1 or two state binding model for single-cycle kinetics or steady-state model for multi-cycle kinetics).

[1] = 100% human serum, 0.2 mM DCP, 37°C, LC-MS, UV 220 nm peak area normalized to 0 h, three independent experiments
human IgG Fc [2] = molecular target: T2, human IgG Fc (Homo sapiens, UniProt P01857); assay: SPR; conditions: Table S12; SPR Biacore S200, PBS-T pH 7.4, biotinylated protein on SA chip; averaged from at least three independent runs; N.A. = no detectable binding; * estimated value due to possible non-specific binding
T2 construct: Biotin-SP-ChromPure Human IgG, Fc fragment; purchased Jackson Immunoresearch Labs Inc. 009060008

human IgG Fc [3] = molecular target: T2, human IgG Fc; assay: Phage competition ELISA (synthetic DCP vs its own phage); assay type: binding; conditions: Table S12; synthetic DCP competing with its own phage for biotinylated human IgG Fc on neutravidin plate; absorbance 450 nm; averaged from at least three independent runs
human VEGF-A = molecular target: T3, human VEGF-A (Homo sapiens, UniProt P15692); assay: SPR; conditions: Table S16; SPR against VEGF-A; averaged from at least three independent runs; estimated KD values due to possible non-specific binding
T3 construct: biotin-VEGF-A (8–109, Genentech)

CSCC[C@@H]1NC(=O)[C@@H]2CSSC[C@H](NC(=O)[C@H](CO)NC(=O)[C@@H](N)C(C)C)C(=O)N[C@@H]([C@@H](C)O)C(=O)N[C@@H]([C@@H](C)O)C(=O)N[C@@H](CO)C(=O)N[C@@H](CCCCN)C(=O)N[C@@H](CCC(=O)O)C(=O)N[C@H]3CSSC[C@H](NC(=O)[C@H]([C@@H](C)O)NC(=O)[C@H](CC(N)=O)NC(=O)[C@H](CCCNC(=N)N)NC1=O)C(=O)N[C@@H](Cc1ccc(O)cc1)C(=O)N[C@H](C(=O)N[C@H](C(=O)N1CCC[C@H]1C(=O)O)[C@@H](C)O)CSSC[C@H](NC(=O)[C@H](C(C)C)NC(=O)[C@H](CO)NC(=O)[C@H](Cc1c[nH]c4ccccc14)NC3=O)C(=O)N[C@@H](CCC(N)=O)C(=O)N[C@@H](CCCNC(=N)N)C(=O)N[C@@H](CC(C)C)C(=O)N[C@@H](Cc1c[nH]cn1)C(=O)N[C@@H](CC(N)=O)C(=O)N[C@@H]([C@@H](C)O)C(=O)N[C@@H](CO)C(=O)N[C@@H](Cc1ccc(O)cc1)C(=O)NCC(=O)N[C@@H]([C@@H](C)O)C(=O)NCC(=O)N2 [Hs-Chr-3]
pKd (human serum albumin): 6.36

CC(C)C[C@@H]1NC(=O)[C@@H]2CSSC[C@@H](C(=O)NCC(=O)O)NC(=O)[C@H](Cc3ccccc3)NC(=O)CNC(=O)[C@H](CC(N)=O)NC(=O)[C@@H]3CCCN3C(=O)CNC(=O)[C@@H]3CSSC[C@H](NC(=O)[C@H](Cc4ccccc4)NC(=O)[C@H](Cc4c[nH]c5ccccc45)NC(=O)[C@H](C(C)C)NC(=O)[C@H](CCCNC(=N)N)NC(=O)[C@H](Cc4ccc(O)cc4)NC(=O)[C@H](Cc4c[nH]c5ccccc45)NC(=O)[C@H](Cc4ccc(O)cc4)NC(=O)[C@H](Cc4c[nH]cn4)NC(=O)[C@H](C)NC(=O)[C@H](CCC(N)=O)NC(=O)[C@@H](NC(=O)CN)CSSC[C@H](NC(=O)CNC(=O)[C@H](C)NC1=O)C(=O)N[C@@H](C(C)C)C(=O)N3)C(=O)N[C@@H](CCCCN)C(=O)N[C@@H](CCC(N)=O)C(=O)N[C@@H](CC(=O)O)C(=O)N[C@@H](CO)C(=O)N[C@@H](CC(=O)O)C(=O)N2 [Ig-EET-1]
loss of peptides after 24 h [1]: 40–50% | pKd (human IgG Fc [2]): 6.64 | pIC50 (human IgG Fc [3]): 6.35

CC[C@H](C)[C@@H]1NC(=O)[C@H](Cc2c[nH]cn2)NC(=O)[C@H](Cc2c[nH]cn2)NC(=O)[C@@H]2CCCN2C(=O)[C@H](C(C)C)NC(=O)[C@H](Cc2c[nH]c3ccccc23)NC(=O)[C@@H]2CCCN2C(=O)[C@H]([C@@H](C)O)NC(=O)[C@H]([C@@H](C)O)NC(=O)[C@@H](NC(=O)CN)CSSC[C@@H]2NC(=O)CNC(=O)[C@H](C)NC(=O)[C@H](CC(C)C)NC(=O)[C@@H]3CSSC[C@@H](C(=O)NCC(=O)O)NC(=O)[C@H](Cc4ccccc4)NC(=O)CNC(=O)[C@H](CC(N)=O)NC(=O)[C@@H]4CCCN4C(=O)CNC(=O)[C@H](CSSC[C@H](NC(=O)[C@H](CCSC)NC1=O)C(=O)N[C@@H](CCCCN)C(=O)N[C@@H](CCC(N)=O)C(=O)N[C@@H](CC(=O)O)C(=O)N[C@@H](CO)C(=O)N[C@@H](CC(=O)O)C(=O)N3)NC(=O)[C@H](C(C)C)NC2=O [V-EET-1]
pKd (human VEGF-A): < 4.70

CC[C@H](C)[C@@H]1NC(=O)[C@H](CCC(N)=O)NC(=O)[C@H](Cc2c[nH]cn2)NC(=O)[C@@H]2CCCN2C(=O)[C@H](Cc2ccccc2)NC(=O)[C@H](Cc2c[nH]c3ccccc23)NC(=O)[C@@H]2CCCN2C(=O)[C@H]([C@@H](C)O)NC(=O)[C@H](CCC(N)=O)NC(=O)[C@@H](NC(=O)CN)CSSC[C@@H]2NC(=O)CNC(=O)[C@H](C)NC(=O)[C@H](CC(C)C)NC(=O)[C@@H]3CSSC[C@@H](C(=O)NCC(=O)O)NC(=O)[C@H](Cc4ccccc4)NC(=O)CNC(=O)[C@H](CC(N)=O)NC(=O)[C@@H]4CCCN4C(=O)CNC(=O)[C@H](CSSC[C@H](NC(=O)[C@H](CC(C)C)NC1=O)C(=O)N[C@@H](CCCCN)C(=O)N[C@@H](CCC(N)=O)C(=O)N[C@@H](CC(=O)O)C(=O)N[C@@H](CO)C(=O)N[C@@H](CC(=O)O)C(=O)N3)NC(=O)[C@H](C(C)C)NC2=O [V-EET-2]
pKd (human VEGF-A): < 4.52
